# Source: EP4653445A1, “CDK INHIBITOR AND CRYSTAL FORM OF PHARMACEUTICALLY ACCEPTABLE SALT THEREOF, AND USE THEREOF” (CSPC Zhongqi Pharmaceutical Technology (Shijiazhuang) Co., …, priority 2023, dated 2024)
# Where a name gives a salt, the structure may show the parent alone.
# Assay: Solubility comparison in water, SGF, FaSSIF and FeSSIF (HPLC of filtrates, XRPD of filter cakes)
# Conditions: for Solubility - 0.5 h / Solubility -2 h / Solubility -24 h: 37°C; for XRPD-24h: filter cake
# [1] = FaSSIF*, HPLC of supernatant after centrifugation
# [2] = FeSSIF, listed as crystalline form C of benzenesulfonate of compound A
# [3] = Water, listed as crystalline form C of benzenesulfonate of compound A
compound,measurement,setting,value
CC(=O)c1c(C)c2cnc(Nc3ccc4c(c3)OC[C@@H]3CN(C5CCN(C)CC5)CCN43)nc2n(C2CCCC2)c1=O [crystalline form C of the benzenesulfonate of compound A],Solubility - 0.5 h,"FaSSIF*, HPLC of supernatant after centrifugation (particle breakthrough on filtration)",0.04 mg/mL
same,Solubility -2 h,[1],0.06 mg/mL
same,Solubility -24 h,[1],0.18 mg/mL
same,XRPD-24h,FaSSIF,transformed to the crystalline form I of the hydrochloride salt
same,XRPD-24h,"FaSSIF, listed as crystalline form C of benzenesulfonate of compound A",transformation to crystalline form B of the hydrochloride salt after 0.5 h
same,Solubility - 0.5 h,[2],1.43 mg/mL
same,Solubility -24 h,[2],1.37 mg/mL
same,XRPD-24h,FeSSIF,became viscous
same,XRPD-24h,[2],Viscous solid
same,Solubility - 0.5 h,SGF,>5 mg/mL
same,Solubility -2 h,SGF,>5 mg/mL
same,Solubility -24 h,SGF,>5 mg/mL
same,Solubility - 0.5 h,[3],3.77 mg/mL
same,Solubility -24 h,Water,greater than 5 mg/mL
same,XRPD-24h,[3],Clear
CC(=O)c1c(C)c2cnc(Nc3ccc4c(c3)OC[C@@H]3CN(C5CCN(C)CC5)CCN43)nc2n(C2CCCC2)c1=O [Compound A],XRPD-24h,FeSSIF,became viscous
CC(=O)c1c(C)c2cnc(Nc3ccc4c(c3)OC[C@@H]3CN(C5CCN(C)CC5)CCN43)nc2n(C2CCCC2)c1=O [crystalline form B of the hydrochloride salt of compound A],Solubility - 0.5 h,"FaSSIF, listed as crystalline form B of hydrochloride monohydrate of compound A, 30 min",0.24 mg/mL
same,XRPD-24h,FaSSIF,Unchanged
same,Solubility - 0.5 h,"FeSSIF, listed as crystalline form B of hydrochloride monohydrate of compound A, 30 min",1.63 mg/mL
same,XRPD-24h,"FeSSIF, listed as crystalline form B of hydrochloride monohydrate of compound A",Unchanged
same,Solubility - 0.5 h,"Water, listed as crystalline form B of hydrochloride monohydrate of compound A, 30 min",3.32 mg/mL
same,Solubility -24 h,"Water, listed as crystalline form B of hydrochloride monohydrate of compound A, 1440 min",3.45 mg/mL
same,XRPD-24h,Water,Unchanged
